{"sequences": {"note": "Protein sequences, listed by entry. Tags and fused reporters are not part of them. Lines headed by an entry give the natural chain unless they say otherwise; changes in a name come on top.", "UniProt Q6P2M8": "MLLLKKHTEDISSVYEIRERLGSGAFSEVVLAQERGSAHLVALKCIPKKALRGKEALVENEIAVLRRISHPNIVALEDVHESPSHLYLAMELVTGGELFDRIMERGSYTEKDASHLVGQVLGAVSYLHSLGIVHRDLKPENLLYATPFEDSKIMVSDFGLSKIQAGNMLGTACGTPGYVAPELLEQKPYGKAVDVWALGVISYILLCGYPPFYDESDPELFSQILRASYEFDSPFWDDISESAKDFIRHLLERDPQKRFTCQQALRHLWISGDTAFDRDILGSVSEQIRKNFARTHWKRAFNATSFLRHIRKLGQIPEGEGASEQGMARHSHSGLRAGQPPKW", "UniProt Q9BXA7": "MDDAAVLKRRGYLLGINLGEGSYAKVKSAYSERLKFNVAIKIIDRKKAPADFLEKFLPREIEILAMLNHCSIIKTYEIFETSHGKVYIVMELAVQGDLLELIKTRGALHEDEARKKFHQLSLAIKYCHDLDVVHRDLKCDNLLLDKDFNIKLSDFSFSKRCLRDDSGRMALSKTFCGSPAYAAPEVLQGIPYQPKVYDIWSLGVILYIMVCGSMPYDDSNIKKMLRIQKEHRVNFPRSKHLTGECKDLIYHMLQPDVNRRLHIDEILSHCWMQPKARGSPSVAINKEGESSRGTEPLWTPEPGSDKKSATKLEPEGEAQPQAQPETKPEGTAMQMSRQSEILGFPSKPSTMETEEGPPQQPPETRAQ", "UniProt Q9BYP7": "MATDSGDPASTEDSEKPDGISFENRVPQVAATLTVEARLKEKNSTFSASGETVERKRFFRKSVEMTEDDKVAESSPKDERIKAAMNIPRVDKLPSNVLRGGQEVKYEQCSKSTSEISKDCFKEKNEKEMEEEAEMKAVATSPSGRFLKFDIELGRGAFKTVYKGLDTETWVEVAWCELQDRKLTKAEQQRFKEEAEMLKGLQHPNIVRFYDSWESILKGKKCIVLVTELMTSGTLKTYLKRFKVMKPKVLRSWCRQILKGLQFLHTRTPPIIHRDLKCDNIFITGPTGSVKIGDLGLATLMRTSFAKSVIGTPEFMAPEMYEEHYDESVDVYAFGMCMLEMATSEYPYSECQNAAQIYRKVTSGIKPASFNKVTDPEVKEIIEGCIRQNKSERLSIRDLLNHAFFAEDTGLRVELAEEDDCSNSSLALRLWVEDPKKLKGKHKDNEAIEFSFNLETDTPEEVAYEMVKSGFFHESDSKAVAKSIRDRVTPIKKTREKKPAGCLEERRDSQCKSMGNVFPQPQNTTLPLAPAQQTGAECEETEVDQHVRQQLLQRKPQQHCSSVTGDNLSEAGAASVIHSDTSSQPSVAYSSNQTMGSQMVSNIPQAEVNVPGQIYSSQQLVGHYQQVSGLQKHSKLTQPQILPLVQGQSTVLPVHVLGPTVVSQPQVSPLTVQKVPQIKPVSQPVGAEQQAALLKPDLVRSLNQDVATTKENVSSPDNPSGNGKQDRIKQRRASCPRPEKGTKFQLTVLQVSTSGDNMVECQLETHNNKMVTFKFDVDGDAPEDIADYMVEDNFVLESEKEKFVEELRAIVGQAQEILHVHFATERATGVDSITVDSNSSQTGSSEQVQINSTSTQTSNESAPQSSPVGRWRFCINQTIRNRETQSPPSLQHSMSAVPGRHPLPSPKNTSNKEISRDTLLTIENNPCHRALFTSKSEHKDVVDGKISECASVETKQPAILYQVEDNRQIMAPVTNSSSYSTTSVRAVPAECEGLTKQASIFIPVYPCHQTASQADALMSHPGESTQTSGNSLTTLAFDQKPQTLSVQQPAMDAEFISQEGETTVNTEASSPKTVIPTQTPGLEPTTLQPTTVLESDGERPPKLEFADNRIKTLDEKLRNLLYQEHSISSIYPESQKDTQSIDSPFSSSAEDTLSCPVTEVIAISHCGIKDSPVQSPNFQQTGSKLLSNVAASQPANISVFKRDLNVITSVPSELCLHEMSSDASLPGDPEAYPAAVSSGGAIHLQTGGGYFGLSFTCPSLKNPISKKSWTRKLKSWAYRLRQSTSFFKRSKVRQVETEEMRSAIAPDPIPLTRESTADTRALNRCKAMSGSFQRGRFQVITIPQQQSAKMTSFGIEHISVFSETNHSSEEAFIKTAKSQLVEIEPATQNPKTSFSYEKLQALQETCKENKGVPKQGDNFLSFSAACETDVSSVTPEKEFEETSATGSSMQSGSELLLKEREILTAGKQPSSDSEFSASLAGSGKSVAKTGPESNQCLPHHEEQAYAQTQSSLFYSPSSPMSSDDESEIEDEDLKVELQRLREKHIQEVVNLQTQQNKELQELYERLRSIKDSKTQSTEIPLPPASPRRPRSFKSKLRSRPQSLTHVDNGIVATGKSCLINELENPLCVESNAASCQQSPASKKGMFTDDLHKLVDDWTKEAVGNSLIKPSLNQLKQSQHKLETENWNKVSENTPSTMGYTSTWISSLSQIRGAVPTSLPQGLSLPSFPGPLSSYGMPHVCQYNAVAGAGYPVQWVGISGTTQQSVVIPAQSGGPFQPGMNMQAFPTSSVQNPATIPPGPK", "UniProt P53355": "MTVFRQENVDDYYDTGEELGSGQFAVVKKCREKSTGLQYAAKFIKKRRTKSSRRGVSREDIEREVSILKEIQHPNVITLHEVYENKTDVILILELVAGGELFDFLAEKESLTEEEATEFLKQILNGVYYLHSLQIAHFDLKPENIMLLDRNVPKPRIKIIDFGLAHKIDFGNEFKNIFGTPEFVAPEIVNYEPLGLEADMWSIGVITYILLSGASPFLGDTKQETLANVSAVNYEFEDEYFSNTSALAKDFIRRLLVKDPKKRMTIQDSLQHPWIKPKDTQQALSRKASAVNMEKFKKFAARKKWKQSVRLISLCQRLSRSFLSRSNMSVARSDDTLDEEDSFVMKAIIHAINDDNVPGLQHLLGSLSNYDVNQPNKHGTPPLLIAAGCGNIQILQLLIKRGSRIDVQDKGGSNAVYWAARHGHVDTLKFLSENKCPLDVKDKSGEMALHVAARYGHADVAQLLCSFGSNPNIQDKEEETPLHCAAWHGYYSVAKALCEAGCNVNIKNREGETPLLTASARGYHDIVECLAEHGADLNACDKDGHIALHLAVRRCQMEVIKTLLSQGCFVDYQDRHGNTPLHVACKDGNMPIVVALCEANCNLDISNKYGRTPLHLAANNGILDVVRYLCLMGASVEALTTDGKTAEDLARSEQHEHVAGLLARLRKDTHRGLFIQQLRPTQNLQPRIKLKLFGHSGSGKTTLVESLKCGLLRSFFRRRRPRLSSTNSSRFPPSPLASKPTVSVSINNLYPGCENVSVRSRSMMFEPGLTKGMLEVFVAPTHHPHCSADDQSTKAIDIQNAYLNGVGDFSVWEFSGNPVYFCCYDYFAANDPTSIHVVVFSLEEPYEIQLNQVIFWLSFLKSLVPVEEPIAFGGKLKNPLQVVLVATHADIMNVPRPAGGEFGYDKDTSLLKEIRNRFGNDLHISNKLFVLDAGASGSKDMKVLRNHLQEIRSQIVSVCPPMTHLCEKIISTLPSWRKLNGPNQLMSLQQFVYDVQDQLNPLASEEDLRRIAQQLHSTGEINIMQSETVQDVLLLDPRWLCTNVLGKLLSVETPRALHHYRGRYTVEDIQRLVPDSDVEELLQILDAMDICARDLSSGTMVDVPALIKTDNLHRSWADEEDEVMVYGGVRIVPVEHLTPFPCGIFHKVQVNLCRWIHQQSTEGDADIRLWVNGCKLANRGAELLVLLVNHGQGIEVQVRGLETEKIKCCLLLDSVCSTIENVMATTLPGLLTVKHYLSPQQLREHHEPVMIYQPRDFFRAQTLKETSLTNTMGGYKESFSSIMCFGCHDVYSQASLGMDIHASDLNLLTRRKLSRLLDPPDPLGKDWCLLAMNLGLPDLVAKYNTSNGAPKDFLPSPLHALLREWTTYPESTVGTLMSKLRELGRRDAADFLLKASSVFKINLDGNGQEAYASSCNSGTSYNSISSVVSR", "UniProt Q9H422": "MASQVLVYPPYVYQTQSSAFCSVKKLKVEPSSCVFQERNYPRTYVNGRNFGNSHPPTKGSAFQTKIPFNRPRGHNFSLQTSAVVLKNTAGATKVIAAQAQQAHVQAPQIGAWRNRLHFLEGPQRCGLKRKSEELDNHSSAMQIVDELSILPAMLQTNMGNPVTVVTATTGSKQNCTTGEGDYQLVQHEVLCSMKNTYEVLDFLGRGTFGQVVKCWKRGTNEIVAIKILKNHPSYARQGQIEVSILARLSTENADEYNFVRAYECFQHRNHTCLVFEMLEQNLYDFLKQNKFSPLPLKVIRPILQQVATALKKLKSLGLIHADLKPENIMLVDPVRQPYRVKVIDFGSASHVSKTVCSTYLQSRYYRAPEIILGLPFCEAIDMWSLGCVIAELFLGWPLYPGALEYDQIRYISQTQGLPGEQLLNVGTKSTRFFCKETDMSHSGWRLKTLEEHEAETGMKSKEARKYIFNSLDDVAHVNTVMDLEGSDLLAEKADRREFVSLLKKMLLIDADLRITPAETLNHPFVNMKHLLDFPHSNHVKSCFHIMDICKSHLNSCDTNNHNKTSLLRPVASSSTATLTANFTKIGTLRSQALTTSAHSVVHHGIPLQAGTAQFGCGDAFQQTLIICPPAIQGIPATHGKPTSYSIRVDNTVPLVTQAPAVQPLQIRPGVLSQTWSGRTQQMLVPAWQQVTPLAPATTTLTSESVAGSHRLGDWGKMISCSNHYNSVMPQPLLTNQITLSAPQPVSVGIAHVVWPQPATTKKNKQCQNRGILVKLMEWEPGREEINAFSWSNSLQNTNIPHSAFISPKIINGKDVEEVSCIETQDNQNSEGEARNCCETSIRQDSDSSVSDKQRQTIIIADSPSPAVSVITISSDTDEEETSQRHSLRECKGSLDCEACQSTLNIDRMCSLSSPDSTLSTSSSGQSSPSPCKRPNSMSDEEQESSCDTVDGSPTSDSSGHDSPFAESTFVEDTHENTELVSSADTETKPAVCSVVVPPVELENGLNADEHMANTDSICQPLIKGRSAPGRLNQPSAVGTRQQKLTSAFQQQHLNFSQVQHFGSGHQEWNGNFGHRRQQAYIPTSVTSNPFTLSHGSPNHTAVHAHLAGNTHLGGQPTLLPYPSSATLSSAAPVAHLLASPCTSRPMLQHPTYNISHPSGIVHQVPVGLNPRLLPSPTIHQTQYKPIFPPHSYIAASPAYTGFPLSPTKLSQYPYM", "UniProt P06213, whole entry, looked up": "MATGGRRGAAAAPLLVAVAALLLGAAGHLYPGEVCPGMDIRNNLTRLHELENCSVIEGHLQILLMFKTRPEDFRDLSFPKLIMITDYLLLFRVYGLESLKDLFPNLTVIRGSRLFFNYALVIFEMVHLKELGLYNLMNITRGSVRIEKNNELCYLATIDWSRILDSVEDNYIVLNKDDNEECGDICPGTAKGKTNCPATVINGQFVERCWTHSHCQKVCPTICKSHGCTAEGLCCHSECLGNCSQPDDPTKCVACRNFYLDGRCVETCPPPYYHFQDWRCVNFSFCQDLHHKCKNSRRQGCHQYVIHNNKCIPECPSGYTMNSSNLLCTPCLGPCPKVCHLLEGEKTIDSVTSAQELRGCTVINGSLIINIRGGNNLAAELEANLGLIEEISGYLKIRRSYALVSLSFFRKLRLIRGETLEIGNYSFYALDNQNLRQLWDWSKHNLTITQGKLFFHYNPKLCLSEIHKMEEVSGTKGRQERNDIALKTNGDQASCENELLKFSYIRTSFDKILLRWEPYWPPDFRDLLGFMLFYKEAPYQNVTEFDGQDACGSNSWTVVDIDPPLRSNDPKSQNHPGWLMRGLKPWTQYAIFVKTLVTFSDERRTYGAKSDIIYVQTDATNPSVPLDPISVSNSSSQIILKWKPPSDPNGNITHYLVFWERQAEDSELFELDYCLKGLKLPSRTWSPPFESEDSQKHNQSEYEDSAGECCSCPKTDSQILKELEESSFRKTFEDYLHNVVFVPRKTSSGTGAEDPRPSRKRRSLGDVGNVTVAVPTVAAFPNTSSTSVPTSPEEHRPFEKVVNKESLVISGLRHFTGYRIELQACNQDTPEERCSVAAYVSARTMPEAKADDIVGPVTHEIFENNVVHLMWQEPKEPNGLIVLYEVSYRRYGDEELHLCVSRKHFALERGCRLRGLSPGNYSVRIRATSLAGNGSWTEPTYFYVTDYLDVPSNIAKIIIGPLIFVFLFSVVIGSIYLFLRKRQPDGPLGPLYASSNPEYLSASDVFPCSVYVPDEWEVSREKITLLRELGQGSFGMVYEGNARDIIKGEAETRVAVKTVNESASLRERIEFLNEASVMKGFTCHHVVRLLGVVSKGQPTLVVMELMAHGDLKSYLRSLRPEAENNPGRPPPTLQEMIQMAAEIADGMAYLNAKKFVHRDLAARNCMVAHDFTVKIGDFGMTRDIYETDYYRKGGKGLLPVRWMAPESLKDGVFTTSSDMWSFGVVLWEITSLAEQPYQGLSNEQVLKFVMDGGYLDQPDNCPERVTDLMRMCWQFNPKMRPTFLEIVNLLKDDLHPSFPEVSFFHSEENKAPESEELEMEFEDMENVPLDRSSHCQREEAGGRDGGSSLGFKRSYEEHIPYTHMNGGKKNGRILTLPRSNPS"}, "source": "the kinase profiling compilation of Christmann-Franck et al. (2016)", "experiment_in_all_cases": "radiometric filter-binding kinase assay, Kinase HotSpot", "conditions_in_all_cases": "compound 0.5 µM; ATP 10 µM", "key": {"[1]": {"target": "PNCK (human) (UniProt Q6P2M8)"}, "[2]": {"target": "TSSK1B (human) (UniProt Q9BXA7)"}, "[3]": {"target": "STK17A (human) (UniProt Q9UEE5)"}, "[4]": {"target": "MAP3K5 (human) (UniProt Q99683)"}, "[5]": {"target": "WNK3 (human) (UniProt Q9BYP7)"}, "[6]": {"target": "STK11 (human) (UniProt Q15831)"}, "[7]": {"target": "CDC42BPB (human) (UniProt Q9Y5S2)"}, "[8]": {"target": "STK4 (human) (UniProt Q13043)"}, "[9]": {"target": "EPHA7 (human) (UniProt Q15375)"}, "[10]": {"target": "EGFR (human) (UniProt P00533)"}, "[11]": {"target": "DAPK1 (human) (UniProt P53355)"}, "[12]": {"target": "ROS1 (human) (UniProt P08922)"}, "[13]": {"target": "NUAK1 (human) (UniProt O60285)"}, "[14]": {"target": "EPHB4 (human) (UniProt P54760)"}, "[15]": {"target": "IKBKB (human) (UniProt O14920)"}, "[16]": {"target": "HIPK4 (human) (UniProt Q8NE63)"}, "[17]": {"target": "WNK2 (human) (UniProt Q9Y3S1)"}, "[18]": {"target": "IGF1R (human) (UniProt P08069)"}, "[19]": {"target": "GRK6 (human) (UniProt P43250)"}, "[20]": {"target": "HIPK3 (human) (UniProt Q9H422)"}, "[21]": {"target": "MST1R (human) (UniProt Q04912)"}, "[22]": {"target": "DYRK4 (human) (UniProt Q9NR20)"}, "[23]": {"target": "PLK1 (human) (UniProt P53350)"}, "[24]": {"target": "DCLK2 (human) (UniProt Q8N568)"}, "[25]": {"target": "SGK2 (human) (UniProt Q9HBY8)"}, "[26]": {"target": "CAMKK2 (human) (UniProt Q96RR4)"}, "[27]": {"target": "STK10 (human) (UniProt O94804)"}, "[28]": {"target": "EPHB3 (human) (UniProt P54753)"}, "[29]": {"target": "PRKD3 (human) (UniProt O94806)"}, "[30]": {"target": "MAPKAPK2 (human) (UniProt P49137)"}, "[31]": {"target": "INSR (human) (UniProt P06213)"}, "[32]": {"target": "PHKG2 (human) (UniProt P15735)"}, "[33]": {"target": "EPHA4 (human) (UniProt P54764)"}, "[34]": {"target": "RPS6KA1 KD1 KD2 (human) (UniProt Q15418)"}, "[35]": {"target": "PAK1 (human) (UniProt Q13153)"}, "[36]": {"target": "NEK3 (human) (UniProt P51956)"}, "[37]": {"target": "JAK1 JH1 catalytic (human) (UniProt P23458)"}, "[38]": {"target": "MUSK (human) (UniProt O15146)"}, "[39]": {"target": "TBK1 (human) (UniProt Q9UHD2)"}, "[40]": {"target": "BRSK2 (human) (UniProt Q8IWQ3)"}, "[41]": {"target": "CSNK1G2 (human) (UniProt P78368)"}, "[42]": {"target": "NEK2 (human) (UniProt P51955)"}}}
{"smiles": "COc1cc(OC)c(/C=C2\\C(=O)Nc3ccccc32)c(OC)c1", "values": [{"measurement": "residual activity", "setting": "[1]", "result": 96.5, "unit": "%"}, {"measurement": "residual activity", "setting": "[2]", "result": 98.3, "unit": "%"}, {"measurement": "residual activity", "setting": "[3]", "result": 97.4, "unit": "%"}, {"measurement": "residual activity", "setting": "[4]", "result": 100, "unit": "%"}, {"measurement": "residual activity", "setting": "[5]", "result": 97.6, "unit": "%"}, {"measurement": "residual activity", "setting": "[6]", "result": 105, "unit": "%"}, {"measurement": "residual activity", "setting": "[7]", "result": 101, "unit": "%"}, {"measurement": "residual activity", "setting": "[8]", "result": 94.4, "unit": "%"}, {"measurement": "residual activity", "setting": "[9]", "result": 101, "unit": "%"}, {"measurement": "residual activity", "setting": "[10]", "result": 96.5, "unit": "%"}, {"measurement": "residual activity", "setting": "[11]", "result": 99.3, "unit": "%"}, {"measurement": "residual activity", "setting": "[12]", "result": 94.4, "unit": "%"}, {"measurement": "residual activity", "setting": "[13]", "result": 94.6, "unit": "%"}, {"measurement": "residual activity", "setting": "[14]", "result": 95.5, "unit": "%"}, {"measurement": "residual activity", "setting": "[15]", "result": 94.5, "unit": "%"}, {"measurement": "residual activity", "setting": "[16]", "result": 109, "unit": "%"}, {"measurement": "residual activity", "setting": "[17]", "result": 98.6, "unit": "%"}, {"measurement": "residual activity", "setting": "[18]", "result": 113, "unit": "%"}, {"measurement": "residual activity", "setting": "[19]", "result": 109, "unit": "%"}, {"measurement": "residual activity", "setting": "[20]", "result": 91.1, "unit": "%"}, {"measurement": "residual activity", "setting": "[21]", "result": 98.8, "unit": "%"}, {"measurement": "residual activity", "setting": "[22]", "result": 96.3, "unit": "%"}, {"measurement": "residual activity", "setting": "[23]", "result": 100, "unit": "%"}, {"measurement": "residual activity", "setting": "[24]", "result": 97.6, "unit": "%"}, {"measurement": "residual activity", "setting": "[25]", "result": 102, "unit": "%"}, {"measurement": "residual activity", "setting": "[26]", "result": 98.8, "unit": "%"}, {"measurement": "residual activity", "setting": "[27]", "result": 95.8, "unit": "%"}, {"measurement": "residual activity", "setting": "[28]", "result": 89.8, "unit": "%"}, {"measurement": "residual activity", "setting": "[29]", "result": 94, "unit": "%"}, {"measurement": "residual activity", "setting": "[30]", "result": 103, "unit": "%"}, {"measurement": "residual activity", "setting": "[31]", "result": 95.1, "unit": "%"}, {"measurement": "residual activity", "setting": "[32]", "result": 94.2, "unit": "%"}, {"measurement": "residual activity", "setting": "[33]", "result": 98.6, "unit": "%"}, {"measurement": "residual activity", "setting": "[34]", "result": 82.8, "unit": "%"}, {"measurement": "residual activity", "setting": "[35]", "result": 94.1, "unit": "%"}, {"measurement": "residual activity", "setting": "[36]", "result": 114, "unit": "%"}, {"measurement": "residual activity", "setting": "[37]", "result": 105, "unit": "%"}, {"measurement": "residual activity", "setting": "[38]", "result": 96, "unit": "%"}, {"measurement": "residual activity", "setting": "[39]", "result": 98.1, "unit": "%"}, {"measurement": "residual activity", "setting": "[40]", "result": 95.4, "unit": "%"}, {"measurement": "residual activity", "setting": "[41]", "result": 95.2, "unit": "%"}, {"measurement": "residual activity", "setting": "[42]", "result": 107, "unit": "%"}]}
{"smiles": "O=C1c2ccccc2-[n+]2ccc3c([nH]c4ccccc43)c21", "values": [{"measurement": "residual activity", "setting": "[1]", "result": 93.7, "unit": "%"}, {"measurement": "residual activity", "setting": "[2]", "result": 89.9, "unit": "%"}, {"measurement": "residual activity", "setting": "[3]", "result": 98.1, "unit": "%"}, {"measurement": "residual activity", "setting": "[4]", "result": 91.3, "unit": "%"}, {"measurement": "residual activity", "setting": "[5]", "result": 102, "unit": "%"}, {"measurement": "residual activity", "setting": "[6]", "result": 107, "unit": "%"}, {"measurement": "residual activity", "setting": "[7]", "result": 90.9, "unit": "%"}, {"measurement": "residual activity", "setting": "[8]", "result": 102, "unit": "%"}, {"measurement": "residual activity", "setting": "[9]", "result": 99.1, "unit": "%"}, {"measurement": "residual activity", "setting": "[10]", "result": 96.8, "unit": "%"}, {"measurement": "residual activity", "setting": "[11]", "result": 101, "unit": "%"}, {"measurement": "residual activity", "setting": "[12]", "result": 95.5, "unit": "%"}, {"measurement": "residual activity", "setting": "[13]", "result": 94.3, "unit": "%"}, {"measurement": "residual activity", "setting": "[14]", "result": 102, "unit": "%"}, {"measurement": "residual activity", "setting": "[15]", "result": 86.7, "unit": "%"}, {"measurement": "residual activity", "setting": "[16]", "result": 96.5, "unit": "%"}, {"measurement": "residual activity", "setting": "[17]", "result": 102, "unit": "%"}, {"measurement": "residual activity", "setting": "[18]", "result": 102, "unit": "%"}, {"measurement": "residual activity", "setting": "[19]", "result": 75.5, "unit": "%"}, {"measurement": "residual activity", "setting": "[20]", "result": 103, "unit": "%"}, {"measurement": "residual activity", "setting": "[21]", "result": 101, "unit": "%"}, {"measurement": "residual activity", "setting": "[22]", "result": 99, "unit": "%"}, {"measurement": "residual activity", "setting": "[23]", "result": 75.9, "unit": "%"}, {"measurement": "residual activity", "setting": "[24]", "result": 93.2, "unit": "%"}, {"measurement": "residual activity", "setting": "[25]", "result": 95.8, "unit": "%"}, {"measurement": "residual activity", "setting": "[26]", "result": 98.6, "unit": "%"}, {"measurement": "residual activity", "setting": "[27]", "result": 95.6, "unit": "%"}, {"measurement": "residual activity", "setting": "[28]", "result": 90.9, "unit": "%"}, {"measurement": "residual activity", "setting": "[29]", "result": 97, "unit": "%"}, {"measurement": "residual activity", "setting": "[30]", "result": 105, "unit": "%"}, {"measurement": "residual activity", "setting": "[31]", "result": 69.6, "unit": "%"}, {"measurement": "residual activity", "setting": "[32]", "result": 104, "unit": "%"}, {"measurement": "residual activity", "setting": "[33]", "result": 95.6, "unit": "%"}, {"measurement": "residual activity", "setting": "[34]", "result": 78.6, "unit": "%"}, {"measurement": "residual activity", "setting": "[35]", "result": 90.8, "unit": "%"}, {"measurement": "residual activity", "setting": "[36]", "result": 102, "unit": "%"}, {"measurement": "residual activity", "setting": "[37]", "result": 96.8, "unit": "%"}, {"measurement": "residual activity", "setting": "[38]", "result": 102, "unit": "%"}, {"measurement": "residual activity", "setting": "[39]", "result": 98.9, "unit": "%"}, {"measurement": "residual activity", "setting": "[40]", "result": 91.3, "unit": "%"}, {"measurement": "residual activity", "setting": "[41]", "result": 110, "unit": "%"}, {"measurement": "residual activity", "setting": "[42]", "result": 77.1, "unit": "%"}]}
